# Earlier results as cited in patent publication US20140256765A1, “TRANSMUCOSAL DRUG DELIVERY SYSTEM” (priority 2013, published 2014).
# Some compounds may have been tested in ways that are not shown here.
# Conditions: current transmucosal therapy (lollipop)
compound,measurement,value
CCC(=O)N(c1ccccc1)C1CCN(CCc2ccccc2)CC1,time to reach maximum plasma concentrations,over 20 minutes
